Experimental data reported in patent publication US9694016B2 (Novartis AG, priority 2013, dated 2017).

Chains of the proteins cited; added tags and fusions are not shown.
UniProt P04049, whole entry Y340E/Y341E: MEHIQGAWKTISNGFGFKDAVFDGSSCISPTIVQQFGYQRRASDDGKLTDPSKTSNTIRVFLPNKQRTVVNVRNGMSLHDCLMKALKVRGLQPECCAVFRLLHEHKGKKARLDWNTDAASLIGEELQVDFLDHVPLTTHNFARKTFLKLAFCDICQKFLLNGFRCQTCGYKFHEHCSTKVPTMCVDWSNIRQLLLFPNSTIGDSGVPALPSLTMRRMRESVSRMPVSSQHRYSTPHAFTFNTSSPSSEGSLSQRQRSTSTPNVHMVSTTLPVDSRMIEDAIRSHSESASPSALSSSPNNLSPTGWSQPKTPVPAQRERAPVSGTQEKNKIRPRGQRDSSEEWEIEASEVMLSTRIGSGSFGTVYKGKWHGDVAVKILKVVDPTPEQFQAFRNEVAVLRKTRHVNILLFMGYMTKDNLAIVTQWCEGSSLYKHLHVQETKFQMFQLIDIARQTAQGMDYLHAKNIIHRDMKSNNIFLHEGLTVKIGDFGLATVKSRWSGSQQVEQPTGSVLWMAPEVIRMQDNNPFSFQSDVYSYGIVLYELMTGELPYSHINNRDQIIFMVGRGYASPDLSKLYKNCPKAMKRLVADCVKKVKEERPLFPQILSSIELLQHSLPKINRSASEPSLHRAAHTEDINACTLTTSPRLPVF

Target: C-Raf FL (full-length C-Raf protein, Y340E and Y341E activating mutations) (Homo sapiens (Human), UniProt P04049, Y340E/Y341E)
Type: biochemical
Conditions: Table 2; AlphaScreen, 1 hour reaction; read-out: c-Raf FL IC-50

Structure (SMILES) | IC50
CCOc1ncc(-c2cc(NC(=O)c3cccc(S(C)(=O)=O)c3)ccc2C)cc1N1CCOCC1 [Example 229, N-(3-(6-ethoxy-5-morpholinopyridin-3-yl)-4-methylphenyl)-3-(methylsulfonyl)benzamide] | 0.3 nM
CCOc1ncc(-c2cc(NC(=O)c3cccc(-c4nnco4)c3)ccc2C)cc1N1CCOCC1 [Example 230, N-(3-(6-ethoxy-5-morpholinopyridin-3-yl)-4-methylphenyl)-3-(1,3,4-oxadiazol-2-yl)benzamide] | 0.4 nM
CCOc1ncc(-c2cc(NC(=O)c3cccc(C(F)F)c3)ccc2C)cc1N1CCOCC1 [Example 231, 3-(difluoromethyl)-N-(3-(6-ethoxy-5-morpholinopyridin-3-yl)-4-methylphenyl)benzamide] | 0.1 nM
CCOc1ncc(-c2cc(NC(=O)c3ccnc(S(C)(=O)=O)c3)ccc2C)cc1N1CCOCC1 [Example 232, N-(3-(6-ethoxy-5-morpholinopyridin-3-yl)-4-methylphenyl)-2-(methylsulfonyl)isonicotinamide] | 0.3 nM
CCOc1ncc(-c2cc(NC(=O)c3ccnc(C(C)(F)F)c3)ccc2C)cc1N1CCOCC1 [Example 233, 2-(1,1-difluoroethyl)-N-(3-(6-ethoxy-5-morpholinopyridin-3-yl)-4-methylphenyl)isonicotinamide] | 0.2 nM
CCOc1ncc(-c2cc(NC(=O)c3cc(C(F)(F)F)c(=O)n(CC)c3)ccc2C)cc1N1CCOCC1 [Example 234, N-(3-(6-ethoxy-5-morpholinopyridin-3-yl)-4-methylphenyl)-1-ethyl-6-oxo-5-(trifluoromethyl)-1,6-dihydropyridine-3-carboxamide] | 0.5 nM
CCOc1ncc(-c2cc(C(=O)Nc3cccc(C(C)(C)O)c3)ccc2C)cc1N1CCOCC1 [Example 236, 3-(6-ethoxy-5-morpholinopyridin-3-yl)-N-(3-(2-hydroxypropan-2-yl)phenyl)-4-methylbenzamide] | 0.6 nM
CCOc1ncc(-c2cc(NC(=O)c3ccnc(C(F)F)c3)ccc2C)cc1N1CCOCC1 [Example 237, 2-(difluoromethyl)-N-(3-(6-ethoxy-5-morpholinopyridin-3-yl)-4-methylphenyl)isonicotinamide] | 0.2 nM
CCOc1ncc(-c2cc(NC(=O)c3ccnc(C(C)(C)C#N)c3)cnc2C)cc1N1CCOCC1 [Example 239, 2-(2-cyanopropan-2-yl)-N-(6′-ethoxy-2-methyl-5′-morpholino-[3,3′-bipyridin]-5-yl)isonicotinamide] | 2.1 nM
CCOc1ncc(-c2cc(NC(=O)c3ccnc(C(C)(C)O)c3)cnc2C)cc1N1CCOCC1 [Example 240, N-(6′-ethoxy-2-methyl-5′-morpholino-[3,3′-bipyridin]-5-yl)-2-(2-hydroxypropan-2-yl)isonicotinamide] | 5.1 nM
CCOc1ncc(-c2cc(NC(=O)c3cc(C(F)(F)F)c(=O)n(CC)c3)cnc2C)cc1N1CCOCC1 [Example 241, N-(6′-ethoxy-2-methyl-5′-morpholino-[3,3′-bipyridin]-5-yl)-1-ethyl-6-oxo-5-(trifluoromethyl)-1,6-dihydropyridine-3-carboxamide] | 2 nM
CCOc1ncc(-c2cc(NC(=O)c3cccc(S(C)(=O)=O)c3)cnc2C)cc1N1CCOCC1 [Example 242, N-(6′-ethoxy-2-methyl-5′-morpholino-[3,3′-bipyridin]-5-yl)-3-(methylsulfonyl)benzamide] | 1.8 nM
CCOc1ncc(-c2cc(NC(=O)c3ccnc(S(C)(=O)=O)c3)cnc2C)cc1N1CCOCC1 [Example 243, N-(6′-ethoxy-2-methyl-5′-morpholino-[3,3′-bipyridin]-5-yl)-2-(methylsulfonyl)isonicotinamide] | 2.7 nM
CCOc1ncc(-c2cc(NC(=O)c3cccc(-c4nnco4)c3)cnc2C)cc1N1CCOCC1 [Example 244, N-(6′-ethoxy-2-methyl-5′-morpholino-[3,3′-bipyridin]-5-yl)-3-(1,3,4-oxadiazol-2-yl)benzamide] | 3.6 nM
